Data on 16 compounds can be found in EP4563146A1 (IRBM S.P.A., priority 2023, dated 2025).

Assay [1] has as its target DEN3V NS2B-G4SG4NS3 serine protease (Dengue virus type 3, UniProt Q6YMS4). Description: DEN3V protease inhibition assay.
In assay [2] the target is DEN2V NS2B-G4SG4-NS3 serine protease (Dengue virus type 2, UniProt Q91H74). Description: DEN2V protease inhibition assay.
Assay [3] has as its target DEN4V NS2B-G4SG4NS3 serine protease (Dengue virus type 4, UniProt P09866). Put plainly: DEN4V protease inhibition assay.
The target in assay [4] is DEN1V NS2B-G4SG4NS3 serine protease (Dengue virus type 1, UniProt P17763). Put plainly: DEN1V protease inhibition assay.
[5] abbreviates: read-out: Dengue 3 - NS3 protease.
The mark [6] stands for this setting: read-out: Dengue 2 - NS3 protease.
The mark [7] stands for this setting: read-out: Dengue 4 - NS3 protease.
[8] abbreviates: read-out: Dengue 1 - NS3 protease.

Where two headings read alike, the source gives them in different places.

With `CC(=O)NC[C@H]1CC[C@@H]([n+]2cc([N-]C(=O)Nc3cc(NC(=O)Cc4ccccc4)cc(C(F)(F)F)c3)on2)CC1` [Example 62, (3-((1S,4S)-4-(Acetamidomethyl)cyclohexyl)-1,2,3-oxadiazol-3-ium-5-yl)((3-(2-phenylacetamido)-5-(trifluoromethyl)phenyl)carbamoyl)amide], the IC50 in assay [1] was 1000 to 20000 nM; in assay [2] it was below 100 nM; in assay [3], 1000 to 20000 nM; in assay [4] it was above 20000 nM.
`O=C([N-]c1c[n+](Cc2ccccn2)no1)Nc1cc(NC(=O)C(F)(F)CN2CCCC2)cc(C(F)(F)F)c1` [Example 76]: the IC50 in assay [1] (setting [5]) was 1000 to 20000 nM; in assay [2] (setting [6]) it was below 100 nM; in assay [3] (setting [7]), above 20000 nM; in assay [4] (setting [8]) it was above 20000 nM.
With `O=C(Cc1ccccc1)Nc1cc(NC(=O)[N-]c2c[n+](Cc3ccccn3)no2)cc(C2CC2)c1` [Example 89, ((3-Cyclopropyl-5-(2-phenylacetamido)phenyl)carbamoyl)(3-(pyridin-2-ylmethyl)-1,2,3-oxadiazol-3-ium-5-yl)amide], the IC50 in assay [1] is 100 to 1000 nM; in assay [2], below 100 nM; in assay [3], 1000 to 20000 nM; in assay [4], 1000 to 20000 nM.
For `N[C@H]1CC[C@@H]([n+]2cc([N-]C(=O)Nc3cc(NC(=O)Cc4ccccc4)cc(C(F)(F)F)c3)on2)CC1` [Example 91, (3-((1S,4S)-4-Aminocyclohexyl)-1,2,3-oxadiazol-3-ium-5-yl)((3-(2-phenylacetamido)-5-(trifluoromethyl)phenyl)carbamoyl)amide], the IC50 in assay [1] was 100 to 1000 nM; in assay [2], below 100 nM; in assay [3] it was 1000 to 20000 nM; in assay [4] it was 1000 to 20000 nM.
On to `N[C@H]1CC[C@H]([n+]2cc([N-]C(=O)Nc3cc(NC(=O)Cc4ccccc4)cc(C(F)(F)F)c3)on2)CC1` [Example 92, (3-((1R,4R)-4-Aminocyclohexyl)-1,2,3-oxadiazol-3-ium-5-yl)((3-(2-phenylacetamido)-5-(trifluoromethyl)phenyl)carbamoyl)amide], for which the IC50 in assay [1] is 100 to 1000 nM; in assay [2] it was below 100 nM; in assay [3] it was 1000 to 20000 nM; in assay [4] it was 1000 to 20000 nM.
As for `NC[C@H]1CC[C@H]([n+]2cc([N-]C(=O)Nc3cc(NC(=O)Cc4ccccc4)cc(C(F)(F)F)c3)on2)CC1` [Example 93, (3-((1R,4R)-4-(Aminomethyl)cyclohexyl)-1,2,3-oxadiazol-3-ium-5-yl)((3-(2-phenyl-acetamido)-5-(trifluoromethyl)phenyl)-carbamoyl)amide], the IC50 in assay [1] is 100 to 1000 nM; in assay [2], below 100 nM; in assay [3], 100 to 1000 nM; in assay [4], 1000 to 20000 nM.
Consider `CN(C)C[C@H]1CC[C@H]([n+]2cc([N-]C(=O)Nc3cc(NC(=O)Cc4ccccc4)cc(C(F)(F)F)c3)on2)CC1` [Example 94, (3-((1R,4R)-4-((Dimethylamino)methyl)-cyclohexyl)-1,2,3-oxadiazol-3-ium-5-yl)((3-(2-phenylacetamido)-5-(trifluoromethyl)phenyl)-carbamoyl)amide], for which the IC50 was 100 to 1000 nM in assay [1] (setting [5]), below 100 nM in assay [2] (setting [6]), 100 to 1000 nM in assay [3] (setting [7]) and 1000 to 20000 nM in assay [4] (setting [8]).
`CN(C)[C@H]1CC[C@@H]([n+]2cc([N-]C(=O)Nc3cc(NC(=O)Cc4ccccc4)cc(C(F)(F)F)c3)on2)CC1` [Example 95, (3-((1S,4S)-4-(Dimethylamino)cyclohexyl)-1,2,3-oxadiazol-3-ium-5-yl)((3-(2-phenylacetamido)-5-(trifluoromethyl)phenyl)-carbamoyl)amide]: the IC50 in assay [1] is 100 to 1000 nM; in assay [2], below 100 nM; in assay [3], 1000 to 20000 nM; in assay [4], 1000 to 20000 nM.
Turning to `CN(C)[C@H]1CC[C@H]([n+]2cc([N-]C(=O)Nc3cc(NC(=O)Cc4ccccc4)cc(C(F)(F)F)c3)on2)CC1` [Example 96, (3-((1R,4R)-4-(dimethylamino)cyclohexyl)-1,2,3-oxadiazol-3-ium-5-yl)((3-(2-phenylacetamido)-5-(trifluoromethyl)phenyl)-carbamoyl)amide], the IC50 in assay [1] is 100 to 1000 nM; in assay [2], below 100 nM; in assay [3], 1000 to 20000 nM; in assay [4] it was 1000 to 20000 nM.
Turning to `O=C(Cc1ccccc1)Nc1cc(NC(=O)[N-]c2c[n+](Cc3ccc(C(=O)O)cc3)no2)cc(C(F)(F)F)c1` [Example 101, (3-(4-Carboxybenzyl)-1,2,3-oxadiazol-3-ium-5-yl)((3-(2-phenylacetamido)-5-(trifluoromethyl)phenyl)carbamoyl)amide], the IC50 in assay [1] is 1000 to 20000 nM; in assay [2], below 100 nM; in assay [3] it was 1000 to 20000 nM; in assay [4] it was 1000 to 20000 nM.
Consider `O=C(Cc1ccccc1)Nc1cc(NC(=O)[N-]c2c[n+](Cc3ccc(CO)cc3)no2)cc(C(F)(F)F)c1` [Example 102, (3-(4-(Hydroxymethyl)benzyl)-1,2,3-oxadiazol-3-ium-5-yl)((3-(2-phenylacetamido)-5-(trifluoromethyl)phenyl)carbamoyl)amide], for which the IC50 was below 100 nM in assay [1], below 100 nM in assay [2], 100 to 1000 nM in assay [3] and 1000 to 20000 nM in assay [4].
As for `NCC12CC(C[n+]3cc([N-]C(=O)Nc4cc(NC(=O)Cc5ccccc5)cc(C(F)(F)F)c4)on3)(C1)C2` [Example 103], the IC50 in assay [1] is 1000 to 20000 nM; in assay [2] it was below 100 nM; in assay [3], 1000 to 20000 nM; in assay [4], above 20000 nM.
Turning to `NC(=O)c1ccc(C[n+]2cc([N-]C(=O)Nc3cc(NC(=O)Cc4ccccc4)cc(C(F)(F)F)c3)on2)cc1` [Example 104, (3-(4-Carbamoylbenzyl)-1,2,3-oxadiazol-3-ium-5-yl)((3-(2-phenylacetamido)-5-(trifluoromethyl)phenyl)carbamoyl)amide], the IC50 in assay [1] is below 100 nM; in assay [2], below 100 nM; in assay [3], 100 to 1000 nM; in assay [4], 1000 to 20000 nM.
Turning to `CN1CCCCC1C[n+]1cc([N-]C(=O)Nc2cc(NC(=O)Cc3ccccc3)cc(C(F)(F)F)c2)on1` (stereo not shown) [Example 105, (3-((1-Methylpiperidin-2-yl)methyl)-1,2,3-oxadiazol-3-ium-5-yl)((3-(2-phenylacetamido)-5-(trifluoromethyl)phenyl)carbamoyl)amide], the IC50 is 100 to 1000 nM in assay [1], below 100 nM in assay [2], 1000 to 20000 nM in assay [3] and above 20000 nM in assay [4].
On to `CN1CCC(C[n+]2cc([N-]C(=O)Nc3cc(NC(=O)Cc4ccccc4)cc(C(F)(F)F)c3)on2)CC1` [Example 106, (3-((1-Methylpiperidin-4-yl)methyl)-1,2,3-oxadiazol-3-ium-5-yl)((3-(2-phenylacetamido)-5-(trifluoromethyl)phenyl)carbamoyl)amide], for which the IC50 was 100 to 1000 nM in assay [1], below 100 nM in assay [2], 1000 to 20000 nM in assay [3] and 1000 to 20000 nM in assay [4].
Take `NCc1cccc(C[n+]2cc([N-]C(=O)Nc3cc(NC(=O)Cc4ccccc4)cc(C(F)(F)F)c3)on2)c1` [Example 108, (3-(3-(Aminomethyl)benzyl)-1,2,3-oxadiazol-3-ium-5-yl)((3-(2-phenylacetamido)-5-(trifluoromethyl)phenyl)carbamoyl)amide]: the IC50 in assay [1] was 100 to 1000 nM; in assay [2] it was below 100 nM; in assay [3] it was 1000 to 20000 nM; in assay [4], 1000 to 20000 nM.
